The values below come from publication PMC12120022, “Discovery and chemical optimisation of a potent, Bi-cyclic antimicrobial inhibitor of Escherichia coli PBP3” (Communications Biology, 2025).

Sequences of proteins named here, by UniProt entry; tags and fusion partners are left off. Residues count along the entry.
UniProt P0AD68, 60-588: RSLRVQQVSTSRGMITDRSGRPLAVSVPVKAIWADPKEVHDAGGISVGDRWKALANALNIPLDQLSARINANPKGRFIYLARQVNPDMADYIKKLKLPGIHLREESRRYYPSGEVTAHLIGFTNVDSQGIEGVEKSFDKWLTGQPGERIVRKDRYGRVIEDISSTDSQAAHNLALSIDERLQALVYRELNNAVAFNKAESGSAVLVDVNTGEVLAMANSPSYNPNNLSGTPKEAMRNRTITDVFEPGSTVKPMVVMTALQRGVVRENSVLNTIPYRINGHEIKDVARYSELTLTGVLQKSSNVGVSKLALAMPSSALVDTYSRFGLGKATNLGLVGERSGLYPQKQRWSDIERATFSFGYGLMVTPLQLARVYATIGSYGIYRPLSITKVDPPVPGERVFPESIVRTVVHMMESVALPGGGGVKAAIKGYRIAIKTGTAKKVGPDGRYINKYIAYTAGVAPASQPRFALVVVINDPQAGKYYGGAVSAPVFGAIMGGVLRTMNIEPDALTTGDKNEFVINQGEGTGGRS

One data set has as its system human blood. Briefly: Haemolysis assay. The class given is cell-based. The conditions noted are these: human whole blood, 37 °C, 10 min. On the procedure:
Haemolysis assays were performed using human blood from healthy volunteers, with K2-EDTA as the anticoagulant. Blood was preincubated at 37 °C for 15 min with orbital shaking at 60 rpm. In a 96-deep well plate, 4 μL compound at 100x final concentration was prepared, to which 200 μL whole blood and either 200 μL phosphate-buffered saline (PBS) (test and negative control wells) or 200 μL 2% (w/v) saponin in PBS (positive control wells) was added. Plates were incubated at 37 °C for 10 min with orbital shaking at 60 rpm, and then centrifuged at 500 x g for 5 min at room temperature. 50 μL of supernatant was diluted 1:1 with PBS in a 96 well flat-bottom plate, and absorbance at A540nm was read with a SpectraMax plate reader. Absorbance values were normalised to the mean value for wells with 1% (w/v) saponin, to give a percentage haemolysis readout. Data are representative of 3 technical replicates.

In data set [1] the target is T1, EcPBP3 (Escherichia coli, UniProt P0AD68).
T1 construct: For assays, selections and SPR a construct with residues 60–588 which has the N-terminal domain, but not the transmembrane helix, was used; made in house
Briefly: Fluorescence polarisation competition assay with fluorescent Bicycle tracer (tracer 1 / BCY12820). The class given is binding. The conditions noted are these: protein 9.4 nM sets sensitivity limit, top concentration 5 µM, read-out: Ki (nM) by fluorescence polarisation with tracer 1 (BCY12820 as tracer), Geometric mean (Lower 95% CI; Upper 95% CI, n=number of values). How it is done: Competition fluorescence polarisation assays were run by observing the fluorescence polarisation of a fluorescent “tracer” Bicycle molecule which competes against an unlabelled peptide for binding to the EcPBP3 target. 10 µL of protein (9.4 nM) was mixed with either 5 µL of peptide or 5 µL of buffer and then the assay was initiated by the addition of 10 µL of tracer (1 nM) (final volume 25 µL), in a black 384 low bind, low volume plate (Corning). The buffer was 10 mM HEPES (Sigma), 2% (v/v) glycerol (Sigma), 300 mM NaCl (Sigma), adjusted to pH 8. The plate was incubated for 1 h at 25 °C and then read in a PHERAstar FS (BMG) using with an “FP 485 520 520” optic module (excitation 485 nm, emission 520 nm). The gain was determined immediately prior to the read on a tracer-only well.
Dotmatics (Dotmatics) workflows performing the above calculations were used to process the data. Values quoted are the geometric means of at least 2 repeats.

A short description of a further data set: Mouse plasma stability. The class given is in vitro ADME, CD-1 mice. The following applies: 5 μM, 37 °C. On the procedure:
(§1) Stability assays were performed using freshly collected matrices from CD-1 mice, with anticoagulant as stated per dataset. Compound stocks in DMSO were tested at 5 μM final concentration (0.5% (v/v) DMSO). Compounds were incubated in blood or plasma at 37 °C for 24 h, with sampling at 0, 1, 2, 4, 6 and 24 h. Samples were prepared via protein precipitation using organic solvent containing internal standard, and analyzed by LC-MS/MS. Compound remaining was quantified based on the ratio of analyte to internal standard, and the half-life (t1/2) was calculated from a log linear plot of % remaining versus time.

A short description of a further data set: Mouse blood stability. The format is in vitro ADME, CD-1 mice. The conditions noted are these: heparin as anticoagulant, 5 μM, 37 °C, SAR conjugates. On the procedure:
as §1

In data set [2] the target is T1, EcPBP3. Briefly: SPR binding assay on immobilised EcPBP3. The following applies: 37 °C, kinetic fitting; NB = no binding at 2500 nM (Tables S-4, S-5) or 5000 nM (Table 1); read-out: Kd (nM) by SPR (geomean). How it is done:
Surface plasmon resonance (SPR) assays were performed using EcPBP3 immobilized on CM5 sensor chips (GE Healthcare) via amine-coupling chemistry in assay buffer (10 mM HEPES pH 8.0, 200 mM NaCl, 0.05% (v/v) surfactant P20). The chip surface was activated by injection (10 μL min^–1) of 0.4 M EDC and 0.1 M NHS (in a 1:1 ratio) with a 7 min contact time. Protein was diluted to 25 μg mL^–1 in 10 mM MOPS (pH 7.0) and injected over the activated sensor chip surface to reach immobilization of 1500-2500 response units. Excess hydroxysuccinimidyl groups on the chip surface were deactivated by injection (10 μL min^–1) of 1 M ethanolamine hydrochloride pH 8.0 with a 7 min contact time. Reference flow cells were prepared as described, but without ligand (EcPBP3 protein).
Binding analysis runs were performed at 37 °C in running buffer (10 mM HEPES pH 8.0, 200 mM NaCl, 0.05% (w/v) Tween-20, 2% (v/v) DMSO). […]
Raw sensorgrams data were solvent-corrected, reference-subtracted and blank-buffer-subtracted (double-referencing) before kinetic and affinity analysis to account for non-specific binding and injection artifacts. Equilibrium dissociation constant (Kd) values was determined using the Biacore™ Insight Evaluation Software (version 4.0.8 or version 5.0.17) using kinetic fitting. […]

Substance ACSFPKCPWVEGCA* [Conjugate 2] came in with a Haemolysis with human blood greater than 100 µM. For the same substance, the Ki on EcPBP3 [1] came to 27.7 nM. The “Plasma stability (t1/2)” value in “Mouse plasma stability” is listed as 5.7 h. The “Blood stability (t1/2)” value in “Mouse blood stability” came out at 6.9 h. Also, on EcPBP3 [2], the Kd is 0.525 nM.

Take “ACSFP[HArg]CP[6ClTrp]VEGCA* [Conjugate 4]”: in “Mouse blood stability”, the “Blood stability (t1/2)” value was 8.8 h.

As to “[-Ac]ACSFP[HArg]CP[6ClTrp]VEGCA* [Conjugate 5]”, in the data set “Mouse blood stability”, the “Blood stability (t1/2)” value was determined as 19.9 h.

[-Ac]CSFP[HArg]CPWVEGCA* [Conjugate 7]: in the data set “Mouse blood stability”, the “Blood stability (t1/2)” value stood at 2.8 h.

For “[-Ac]CSFP[HArg]CP[6ClTrp]VEGCA* [Conjugate 6]”, the “Blood stability (t1/2)” value in the data set “Mouse blood stability” turned out to be 4.4 h.

The term Ki denotes a measure of affinity in units of concentration, obtained from inhibition or displacement. As a reminder, the Kd is the free concentration of one partner at which half of the binding sites on the other are occupied at equilibrium, for simple one-to-one binding.
